One molecule from ChEMBL document CHEMBL4354845, “Discovery and Structure-Activity Relationships of Nociceptin Receptor Partial Agonists That Afford Symptom Ablation in Parkinson's Disease Models” (J Med Chem, 2020) can be followed below.

Chains of the proteins cited; added tags and fusions are not shown.
UniProt P41146, whole entry: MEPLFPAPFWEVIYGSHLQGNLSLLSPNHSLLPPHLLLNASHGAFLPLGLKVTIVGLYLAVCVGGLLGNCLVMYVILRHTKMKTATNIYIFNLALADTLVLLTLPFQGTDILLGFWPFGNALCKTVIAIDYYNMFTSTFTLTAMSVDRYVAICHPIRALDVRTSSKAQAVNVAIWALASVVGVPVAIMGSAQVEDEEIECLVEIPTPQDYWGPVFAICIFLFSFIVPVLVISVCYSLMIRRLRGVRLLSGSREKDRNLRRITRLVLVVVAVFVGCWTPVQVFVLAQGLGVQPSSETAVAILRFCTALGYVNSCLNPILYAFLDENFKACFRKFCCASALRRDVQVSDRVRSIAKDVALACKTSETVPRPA

The target of the assay is Nociceptin receptor (Homo sapiens) (UniProt P41146). Briefly: Agonist activity at human NOP expressed in CHO cell membrane incubated for 60 mins by [35S]GTPgammaS binding assay relative to N/OFQ.

In the case of `CC(C)[C@H]1CC[C@@H](N2CCC(n3cc(CNC(=O)[C@@H](N)CCCNC(=N)N)c4ccccc43)CC2)CC1`, the Activity stood at 11.1%.
